# How the values were obtained:
# Chains of the proteins cited; added tags and fusions are not shown.
# UniProt P31645, whole entry: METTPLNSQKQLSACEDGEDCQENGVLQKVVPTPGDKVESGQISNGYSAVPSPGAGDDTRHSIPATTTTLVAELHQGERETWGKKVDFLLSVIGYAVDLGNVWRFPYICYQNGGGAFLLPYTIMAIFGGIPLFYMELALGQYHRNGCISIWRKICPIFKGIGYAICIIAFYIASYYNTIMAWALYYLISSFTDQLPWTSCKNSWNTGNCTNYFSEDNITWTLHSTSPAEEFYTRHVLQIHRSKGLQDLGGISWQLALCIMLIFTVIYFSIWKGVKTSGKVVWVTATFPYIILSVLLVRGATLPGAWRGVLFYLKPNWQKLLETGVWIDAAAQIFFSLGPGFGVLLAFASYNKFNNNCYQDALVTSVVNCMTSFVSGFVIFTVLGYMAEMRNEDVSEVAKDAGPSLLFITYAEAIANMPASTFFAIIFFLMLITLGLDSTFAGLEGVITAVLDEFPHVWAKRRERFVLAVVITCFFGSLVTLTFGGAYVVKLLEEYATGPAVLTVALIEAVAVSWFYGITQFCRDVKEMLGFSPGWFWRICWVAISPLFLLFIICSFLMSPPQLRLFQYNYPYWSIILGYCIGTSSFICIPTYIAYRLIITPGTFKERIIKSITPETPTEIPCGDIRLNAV
# SERT = target: T1, SERT (Homo sapiens, UniProt P31645); assay: SERT efflux: [3H]5-HT release from SERT expressing HEK293T cells; type: cell-based; details: HEK293T cells transiently expressing SERT, 10 pM-100 uM
# T1 construct: host or cells: HEK293T cells, transient transfection with Lipofectamine 3000
# Method: HEK293T cells were grown in Dulbecco's Modified Eagle Media (DMEM) supplemented with 10% fetal bovine serum (FBS) and 1% penicillin-streptomycin. 24 hours prior to the experiment, cells were plated in 24-well plates at a density of 150,000 cells/well and concurrently transfected using Lipofectamine 3000 according to the manufacturer's protocol. Cells were transfected with hSERT-N1-pEYFP (Addgene #70105) or a GFP control plasmid (Lonza pmaxGFP vector). The next day the wells were washed (1×500 μL) with 1× Hank's Balanced Salt Solution supplemented with 2 mM MgCl2 and 2 mM CaCl2 (HBSS) and the plate was placed on a 37° C. water bath for the remainder of the experiment. 250 μL of HBSS containing 10 nM 5-[1,2-3H[N]]-hydroxytryptamine creatinine sulfate (NET498001MC, Lot: 2902700) was added to the wells and incubated for 15 minutes, allowing uptake into SERT expressing HEK cells. Uptake was terminated by aspiration of wells followed by washes (3×500 μL) with HBSS. […] Radioactivity in the form of disintegrations per minute (DPM) was determined the following day with the use of a Beckman LS 6000 liquid scintillation counter. […] The GFP control cells were checked to ensure radioactivity was below background levels.
# [1] = Body temperature assay (IR thermometer); type: in vivo, mice; details: 50 mg/kg i.p., 30-minute time point
# Method: The head-twitch response assay was performed as described previously using both male and female C57BL/6J mice (3 each per treatment). The mice were obtained from Jackson Laboratory and were approximately 9 weeks old at the time of the experiments. Before injecting the mice, their baseline temperature was measured using an IR thermometer as described. Compounds were administered via intraperitoneal (i.p.) injection (5 ml kg-1) using 0.9% saline as the vehicle. Immediately after the animals were placed in an arena for 30-minutes where their locomotor activity was assessed using AnyMaze automated tracking software. The behavior was also videotaped and later scored by two blind overserves for head-twitch responses, the results were averaged. Upon completion of the novelty induced locomotion assay their temperature was measured at the 30-minute mark. The mice were then transferred to a holding cage with their other treatment matched cage mates and their temperature was measured at the 90 and 120-minute mark.
substance,measurement,setting,value
"R-3,4-Methylenedioxy methamphetamine [R-MDMA, reference compound]",[3H]5-HT release (efflux),SERT,the two highest concentration of 10 uM and 100 uM caused significant release of [^3H]5-HT
same,body temperature relative to vehicle,[1],significant decrease in temperature

# — patent publication US20250122164A1, “N,N-[…] ANALOGS FOR TREATING BRAIN DISORDERS” (The Regents of the University of California, priority 2021, published 2025)
